This note sets out measurements from patent EP4722219A1 (Gan & Lee Pharmaceuticals Co., Ltd., priority 2023, dated 2024).

Sequences of proteins named here, by UniProt entry; tags and fusion partners are left off.
UniProt P51532, whole entry: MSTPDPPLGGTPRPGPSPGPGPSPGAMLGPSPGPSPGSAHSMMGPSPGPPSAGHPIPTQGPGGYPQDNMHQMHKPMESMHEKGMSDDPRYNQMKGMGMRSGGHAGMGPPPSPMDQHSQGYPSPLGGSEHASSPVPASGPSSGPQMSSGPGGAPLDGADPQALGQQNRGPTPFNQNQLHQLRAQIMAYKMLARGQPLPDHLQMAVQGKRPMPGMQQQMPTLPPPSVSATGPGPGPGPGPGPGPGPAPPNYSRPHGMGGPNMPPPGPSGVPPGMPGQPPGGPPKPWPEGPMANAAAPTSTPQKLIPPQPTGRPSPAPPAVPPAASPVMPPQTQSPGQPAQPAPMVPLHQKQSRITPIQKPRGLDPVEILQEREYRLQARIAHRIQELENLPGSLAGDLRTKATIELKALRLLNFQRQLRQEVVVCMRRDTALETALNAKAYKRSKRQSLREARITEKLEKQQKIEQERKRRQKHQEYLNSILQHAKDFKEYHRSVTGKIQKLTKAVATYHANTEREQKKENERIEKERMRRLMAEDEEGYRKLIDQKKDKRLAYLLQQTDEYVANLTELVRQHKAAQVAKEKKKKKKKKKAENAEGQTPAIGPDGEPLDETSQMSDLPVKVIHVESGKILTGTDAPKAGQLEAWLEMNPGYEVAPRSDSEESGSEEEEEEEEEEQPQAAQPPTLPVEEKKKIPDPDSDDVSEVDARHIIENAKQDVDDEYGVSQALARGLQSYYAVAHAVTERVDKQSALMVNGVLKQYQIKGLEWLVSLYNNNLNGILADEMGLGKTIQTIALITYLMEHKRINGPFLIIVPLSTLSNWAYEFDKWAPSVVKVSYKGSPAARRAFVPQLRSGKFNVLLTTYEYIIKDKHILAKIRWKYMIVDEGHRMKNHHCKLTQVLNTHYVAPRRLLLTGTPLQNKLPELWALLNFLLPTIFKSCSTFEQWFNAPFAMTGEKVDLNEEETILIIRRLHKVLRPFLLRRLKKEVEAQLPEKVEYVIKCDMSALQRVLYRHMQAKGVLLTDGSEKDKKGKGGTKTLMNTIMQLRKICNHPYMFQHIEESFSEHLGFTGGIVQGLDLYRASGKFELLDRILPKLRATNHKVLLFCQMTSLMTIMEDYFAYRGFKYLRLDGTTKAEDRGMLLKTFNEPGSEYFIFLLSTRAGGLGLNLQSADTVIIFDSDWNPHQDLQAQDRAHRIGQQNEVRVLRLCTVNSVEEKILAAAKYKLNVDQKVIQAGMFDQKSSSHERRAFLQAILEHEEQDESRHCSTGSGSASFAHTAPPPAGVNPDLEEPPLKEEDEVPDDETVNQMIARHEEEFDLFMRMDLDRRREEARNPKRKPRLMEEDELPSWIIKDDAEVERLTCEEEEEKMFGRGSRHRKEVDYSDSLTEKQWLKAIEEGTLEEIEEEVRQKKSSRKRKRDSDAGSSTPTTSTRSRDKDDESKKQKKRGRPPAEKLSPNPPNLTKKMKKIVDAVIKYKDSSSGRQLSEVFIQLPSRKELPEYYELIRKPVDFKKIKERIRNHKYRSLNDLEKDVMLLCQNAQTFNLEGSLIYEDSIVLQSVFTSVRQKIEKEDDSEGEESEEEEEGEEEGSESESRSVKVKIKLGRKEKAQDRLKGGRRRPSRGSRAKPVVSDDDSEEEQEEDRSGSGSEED

The target of test [1] is T1, SMARCA4 (Homo sapiens, UniProt P51532). The experiment in a line: SMARCA4 degradation in HeLa cells (Western blot). The format is cell-based. Further details: endogenous in cells. To be noted: 4 h, read-out: Degradation rate of SMARCA4 in HeLa cells (%). How it is done: HeLa cells were seeded at 1.2 x 10^5 cells/well in a 6-well plate. 2 mL of EMEM medium supplemented with 10% FBS was added to each well and the culture dish was incubated overnight to allow the cells to adhere. […] The cells were returned to the incubator and incubated for another 4 hours.
(§1) After 4 hours, cells were harvested, the culture medium was aspirated, and the cells were rinsed once with 1 mL/well PBS. The PBS was aspirated, and 40 µL/well of RIPA lysis buffer containing protease inhibitors was added. After lysis and centrifugation, total protein extracts were obtained, and protein concentration in the extracts was determined by BCA assay. Protein electrophoresis was performed by SDS-PAGE, followed by constant voltage electrophoresis at 100 V for 60 minutes and the protein was then transferred to a PVDF membrane. The PVDF membrane was blocked in 5% skim milk powder for 1 hour at room temperature. […] After washing the membrane, secondary antibodies were added and incubated at room temperature for 1 hour (protected from the light). After washing, the membrane was exposed using an Odyssey luminometer. Grayscale analysis of bands was performed using Image Studio software.
(§2) The degradation rate (%) of SMARCA2/4 by the PROTAC compounds of the present invention in HeLa cells and SW1573 cells is shown in Table 10. Table 10 Degradation rate of SMARCA2/4 by PROTAC compounds of the present invention in HeLa cells and SW1573 cells (%)

Test [2] concerns the target T1, SMARCA4. The experiment in a line: SMARCA4 degradation in SW1573 cells (Western blot). The test is classed as cell-based. Also noted: endogenous in cells; host or cells: SW1573. To be noted: SW1573, 24 h, read-out: Degradation rate of SMARCA4 in SW1573 cells (%). How it is done:
SW1573 cells were seeded at 2x10^5Cells/well in a 6-well plate. 2 mL of EMEM medium supplemented with 10% FBS was added to each well and was incubated overnight to allow cell attachment. […] The cells were returned to the incubator and incubated for another 24 hours.
as §1, with “After 24” for “After 4”, “the” for “the culture”
as §2
On the technique in general: Immunoblotting shows a protein as a band on a membrane.

SMILES strings stand for the structures.

As to `Cn1c(=O)n(C2CCC(=O)NC2=O)c2cc3c(cc21)C1(CCN(C2CC4(CCC(C#Cc5cc(-c6ccccc6O)nnc5N)CC4)C2)CC1)CO3` (stereo not drawn) [SM-P-4, 3-(1'-(7-((3-amino-6-(2-hydroxyphenyl)pyridazin-4-yl)ethynyl)spiro[3.5]nonan-2-yl)-1-methyl-2-oxo-1,2-dihydro-3H,6H-spiro[benzofuro[5,6-d]imidazole-7,4'-piperidin]-3-yl)piperidine-2,6-dione], the Dmax at 0.001 µM on SMARCA4 [1] and on SMARCA4 [2] was 99% each time. Also, the Dmax at 0.08 µM at SMARCA4 [1] amounted to 98%; on SMARCA4 [2], 100%.

For the molecule `Nc1nnc(-c2ccccc2O)cc1C#CC1CCC2(CC1)CC(N1CCC3(CC1)COc1cc(C(=O)N[C@H]4CCC(=O)NC4=O)c(F)cc13)C2` (stereo partly drawn) [SM-P-8], on SMARCA4 [1], the Dmax at 0.001 µM worked out at 30% and the Dmax at 0.08 µM worked out at 74%. In addition, on SMARCA4 [2], the Dmax at 0.001 µM is -27% and the Dmax at 0.08 µM was -11%.

On to `COc1cc2c(cc1C(=O)N[C@H]1CCC(=O)NC1=O)C1(CCN(C3CC4(CCC(C#Cc5cc(-c6ccccc6O)nnc5N)CC4)C3)CC1)CO2` (stereo partly drawn) [SM-P-14, (S)-1'-(7-((3-amino-6-(2-hydroxyphenyl)pyridazin-4-yl)ethynyl)spiro[3.5]nonan-2-yl)-N-(2,6-dioxopiperidin-3-yl)-6-methoxy-2H-spiro[benzofuran-3,4'-piperidin]-5-carboxamide], for which, at SMARCA4 [1], the Dmax at 0.001 µM amounted to 4% and the Dmax at 0.08 µM was -21%. In addition, at SMARCA4 [2], the Dmax at 0.001 µM worked out at 6% and the Dmax at 0.08 µM is 7%.

For the molecule `Nc1nnc(-c2ccccc2O)cc1C#CC1CCC2(CC1)CC(N1CCC3(CC1)COc1cc(F)c(C(=O)N[C@H]4CCC(=O)NC4=O)cc13)C2` (stereo partly drawn) [SM-P-21], at SMARCA4 [1], the Dmax at 0.001 µM was 17% and the Dmax at 0.08 µM came out at 18%. In addition, at SMARCA4 [2], the Dmax at 0.001 µM was -7% and the Dmax at 0.08 µM is 16%.

Take `Cn1c(=O)n(C2CCC(=O)NC2=O)c2ccc3c(c21)OCC31CCN(C2CC3(CCC(C#Cc4cc(-c5ccccc5O)nnc4N)CC3)C2)CC1` (stereo not drawn) [SM-P-26, 3-(1'-(7-((3-amino-6-(2-hydroxyphenyl)pyridazin-4-yl)ethynyl)spiro[3.5]nonan-2-yl)-1-methyl-2-oxo-1,2-dihydro-3H,7H-spiro[benzofuro[6,7-d]imidazole-6,4'-piperidin]-3-yl)piperidine-2,6-dione]: the Dmax at 0.001 µM at SMARCA4 [1] amounted to 97%; on SMARCA4 [2], 98%. Besides, the Dmax at 0.08 µM at SMARCA4 [1] was 100%; at SMARCA4 [2], 97%.

For the molecule `Cn1c(=O)n(C2CCC(=O)NC2=O)c2ccc3c(c21)OCC31CCN(C[C@H]2CC[C@H](Cn3cc(-c4cc(-c5ccccc5O)nnc4N)cn3)CC2)CC1` (stereo partly drawn) [SM-P-29, 3-(1'-(((1r,4r)-4-((4-(3-amino-6-(2-hydroxyphenyl)pyridazin-4-yl)-1H-pyrazol-1-yl)methyl)cyclohexyl)methyl)-1-methyl-2-oxo-1,2-dihydro-3H,7H-spiro[benzofuro[6,7-d]imidazole-6,4'-piperidin]-3-yl)piperidine-2,6-dione], the Dmax at 0.001 µM on SMARCA4 [1] and at SMARCA4 [2] was 100% in each case. Also, the Dmax at 0.08 µM on SMARCA4 [1] was 92%; at SMARCA4 [2] it was 97%.

Turning to `Cn1c(=O)n(C2CCC(=O)NC2=O)c2cc3c(cc21)C1(CCN(C[C@H]2CC[C@H](Cn4cc(-c5cc(-c6ccccc6O)nnc5N)cn4)CC2)CC1)CO3` (stereo partly drawn) [SM-P-30, 3-(1'-(((1r,4r)-4-((4-(3-amino-6-(2-hydroxyphenyl)pyridazin-4-yl)-1H-pyrazol-1-yl)methyl)cyclohexyl)methyl)-1-methyl-2-oxo-1,2-dihydro-3H,6H-spiro[benzofuro[5,6-d]imidazole-7,4'-piperidin]-3-yl)piperidine-2,6-dione], at SMARCA4 [1], the Dmax at 0.001 µM came out at 100% and the Dmax at 0.08 µM is 94%. Also, at SMARCA4 [2], the Dmax at 0.001 µM turned out to be 100% and the Dmax at 0.08 µM was 98%.

With `Cn1c(=O)n(C2CCC(=O)NC2=O)c2ccc3c(c21)OCC31CCN(C[C@H]2CC[C@H](n3cc(-c4cc(-c5ccccc5O)nnc4N)cn3)CC2)CC1` (stereo partly drawn) [SM-P-35], at SMARCA4 [1], the Dmax at 0.001 µM is 100% and the Dmax at 0.08 µM is 100%. Besides, at SMARCA4 [2], the Dmax at 0.001 µM was found to be 100% and the Dmax at 0.08 µM stood at 100%.

`Cn1c(=O)n(C2CCC(=O)NC2=O)c2cc3c(cc21)C1(CCN(C[C@H]2CC[C@H](n4cc(-c5cc(-c6ccccc6O)nnc5N)cn4)CC2)CC1)CO3` (stereo partly drawn) [SM-P-36]: the Dmax at 0.001 µM came out at 100% at SMARCA4 [1] and 99% on SMARCA4 [2]. The figures for the Dmax at 0.08 µM at SMARCA4 [1] and on SMARCA4 [2] were 97% and 95%, respectively.

Consider `Cn1c(=O)n(C2CCC(=O)NC2=O)c2ccc3c(c21)OCC31CCN(C2CN(c3cc(-c4ccccc4O)nnc3N)C2)CC1` (stereo not drawn) [SM-P-37, 3-(1'-(1-(3-amino-6-(2-hydroxyphenyl)pyridazin-4-yl)azetidin-3-yl)-1-methyl-2-oxo-1,2-dihydro-3H,7H-spiro[benzofuro[6,7-d]imidazole-6,4'-piperidin]-3-yl)piperidine-2,6-dione], for which, on SMARCA4 [1], the Dmax at 0.001 µM is -12% and the Dmax at 0.08 µM stood at 15%.

`Cn1c(=O)n(C2CCC(=O)NC2=O)c2cc3c(cc21)C1(CCN(C2CN(c4cc(-c5ccccc5O)nnc4N)C2)CC1)CO3` (stereo not drawn) [SM-P-38, 3-(1'-(1-(3-amino-6-(2-hydroxyphenyl)pyridazin-4-yl)azetidin-3-yl)-1-methyl-2-oxo-1,2-dihydro-3H,6H-spiro[benzofuro[5,6-d]imidazole-7,4'-piperidin]-3-yl)piperidine-2,6-dione]: on SMARCA4 [1], the Dmax at 0.001 µM stood at 7% and the Dmax at 0.08 µM came out at 26%. In addition, at SMARCA4 [2], the Dmax at 0.001 µM turned out to be 17% and the Dmax at 0.08 µM worked out at 6%.
